## Ab-91 heavy chain CDR variants: yeast mating affinities

Target peptide (SARS-CoV-2 spike, HR2 region): PDVDLGDISGINAS

Each scFv is VL, a (GGGGS)3 linker, VH, as in the parent Ab-91, and differs from it in the CDRs of the heavy chain only.
VL: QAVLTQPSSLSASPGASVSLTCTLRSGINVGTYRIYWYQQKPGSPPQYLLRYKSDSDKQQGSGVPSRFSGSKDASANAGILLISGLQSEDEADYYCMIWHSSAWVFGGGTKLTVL
VH: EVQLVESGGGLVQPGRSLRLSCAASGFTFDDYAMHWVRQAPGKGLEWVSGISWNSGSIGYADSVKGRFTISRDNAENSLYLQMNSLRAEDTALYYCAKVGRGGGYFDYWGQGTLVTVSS

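The starting antibody came from a phage panning campaign against this peptide. In library AAYL51, one, two or three CDR residues were substituted; doubles and triples were drawn at random. AlphaSeq pools MATa yeast showing the antibodies with MATalpha yeast showing the peptide. After mating in shaken culture at 30 °C for 16 h, diploids were selected and their barcode pairs sequenced. Read counts were normalised to the haploid input and turned into Kd by a linear fit to BCL2-family pairs of known affinity, for each replicate. There are three technical replicates.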

Positions count from residue 1 of the parent VH; G50M puts M in place of G. Numbers give log10(Kd / nM), so 0 is 1 nM and 3 is 1 µM. Smaller is tighter. A mean of the replicates is given; it leaves out those without a signal. An entry "n.d." has no value in the source: the pair was not observed among the diploids in that replicate. This suggests poor binding but is not conclusive.

changes,log10 Kd (nM) by replicate,mean log10 Kd (nM),control signals
G50M/N54Y/V99E,n.d. n.d. n.d.,n.d.,0/9
D31R/W53L/Y105N,1.83 1.70 1.63,1.72,6/9 (4.75)
F27R/Y32Q/Y108I,n.d. n.d. n.d.,n.d.,3/9 (4.17)
G50C/V64K,n.d. 4.06 n.d.,4.06,0/9
H35A/N54M,n.d. n.d. n.d.,n.d.,0/9
G26F/V64E/G103L,n.d. n.d. n.d.,n.d.,0/9
F29T/G56F/Y60W,5.59 n.d. 5.21,5.40,4/9 (4.45)
T28S/I51E/V99E,5.59 n.d. n.d.,5.59,7/9 (4.32)
G26M/W53D/S57L,4.85 4.77 n.d.,4.81,5/9 (4.96)
F29E/V99F/G102R,5.53 4.01 n.d.,4.77,0/9
D31F/M34N/A61D,n.d. n.d. n.d.,n.d.,1/9 (3.62)
A33P/M34I/R101D,n.d. n.d. n.d.,n.d.,2/9 (3.91)
S55Y/G59I,n.d. n.d. n.d.,n.d.,1/9 (4.21)
N54W/V99C/F106W,n.d. n.d. n.d.,n.d.,1/9 (4.19)
D30M/M34W/S63P,4.52 4.98 5.31,4.94,6/9 (4.89)
S63H/G104Q/D107F,2.00 1.98 1.89,1.96,2/9 (5.07)
I58A/A61D,3.16 3.14 2.86,3.06,1/9 (4.01)
A33C/G104L,5.16 4.74 n.d.,4.95,2/9 (4.07)
F27H/G56D/Y60N,4.50 5.53 5.54,5.19,6/9 (5.37)
N54V/A61M/V99C,n.d. 3.66 n.d.,3.66,0/9
G26D/I58M,3.46 n.d. 4.46,3.96,5/9 (5.20)
G26M/Y32M/G59N,n.d. n.d. n.d.,n.d.,0/9
S57M/G102A/G104P,3.33 n.d. n.d.,3.33,1/9 (3.67)
I58E/G59R/G104N,4.57 n.d. n.d.,4.57,0/9
T28S/D31Y/G100T,3.19 3.26 4.16,3.54,2/9 (5.10)
V64T/K65V/V99L,5.75 5.62 4.93,5.43,6/9 (4.62)
N54R/S55L/I58C,n.d. n.d. n.d.,n.d.,2/9 (4.36)
G26N/T28W/S55P,4.27 5.88 5.37,5.17,6/9 (5.18)
D30Q/D31S/S52K,n.d. n.d. n.d.,n.d.,0/9
D30T/H35L/W53N,n.d. n.d. n.d.,n.d.,2/9 (4.19)
N54F/A61H/Y105N,n.d. 3.26 n.d.,3.26,0/9
F29N/H35S/D62C,n.d. n.d. n.d.,n.d.,2/9 (2.27)
T28F/N54Q/G103M,4.11 n.d. n.d.,4.11,3/9 (4.02)
W53F/D62S/F106Y,2.79 n.d. n.d.,2.79,1/9 (3.10)
T28M/N54M/D107W,3.82 5.44 4.81,4.69,5/9 (4.62)
M34V/V64L/G103R,5.62 n.d. n.d.,5.62,1/9 (5.14)
G56C/G100M/R101Q,n.d. 5.60 4.96,5.28,6/9 (4.63)
M34T/S63Y/V64R,4.20 n.d. n.d.,4.20,0/9
I58A/G104W/D107T,n.d. n.d. n.d.,n.d.,1/9 (2.93)

From the list, the first 4 with no signal in any replicate:

changes,log10 Kd (nM) by replicate,mean log10 Kd (nM),control signals
G50M/N54Y/V99E,n.d. n.d. n.d.,n.d.,0/9
F27R/Y32Q/Y108I,n.d. n.d. n.d.,n.d.,3/9 (4.17)
H35A/N54M,n.d. n.d. n.d.,n.d.,0/9
G26F/V64E/G103L,n.d. n.d. n.d.,n.d.,0/9

Parent in this assay: reference entry 1.86, copy in this library 0.88. Empty control strains, which show no peptide, gave a signal in 21% of pairings with library AAYL51; the median was 4.54 and 95% of these signals were weaker than 3.26. No background was subtracted. For each scFv, signals with the empty controls are counted beside the result, with their mean in brackets.

Reference: Engelhart et al. 2022, doi:10.1038/s41597-022-01779-4. File: FLAb, binding data.